Results: paper PMC5537347, “A short D-enantiomeric antimicrobial peptide with potent immunomodulatory and antibiofilm activity against multidrug-resistant Pseudomonas aeruginosa and Acinetobacter baumannii” (Scientific Reports, 2017)
Where two headings read alike, the source gives them in different places.

Test system: colistin-resistant P. aeruginosa isolated from cystic fibrosis patients
Text: The broth microdilution technique was utilized to assess the MIC of designed peptides according to the guidelines of the Clinical and Laboratory Standards Institute (CLSI)[37].

[1] = colistin-resistant isolates of Table 3

Colistin [reference compound]
256 µM: MIC (strain 1020) | MIC (strain 1571)
128 µM: MIC50 [1] | MIC (strain 1109) | MIC (strain 16011)
>256 µM: MIC90 [1] | MIC (strain 1015) | MIC (strain 1016) | MIC (strain 1017)
